The source of these data is ChEMBL document CHEMBL1139386, “Discovery of novel CB2 receptor ligands by a pharmacophore-based virtual screening workflow” (J Med Chem, 2009).

The chains behind the UniProt entries cited, without tags or fusion partners.
UniProt P34972, whole entry: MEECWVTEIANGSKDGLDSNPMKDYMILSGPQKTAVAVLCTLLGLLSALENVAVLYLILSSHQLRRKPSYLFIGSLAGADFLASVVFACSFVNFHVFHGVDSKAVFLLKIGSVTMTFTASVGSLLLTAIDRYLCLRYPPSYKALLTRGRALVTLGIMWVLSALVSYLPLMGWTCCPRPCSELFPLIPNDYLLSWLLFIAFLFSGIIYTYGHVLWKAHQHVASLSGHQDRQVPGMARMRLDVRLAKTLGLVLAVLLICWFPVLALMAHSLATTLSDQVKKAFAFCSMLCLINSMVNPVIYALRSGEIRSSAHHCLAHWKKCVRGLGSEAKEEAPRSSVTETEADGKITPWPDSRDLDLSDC

The target in the assay is Cannabinoid receptor 2 (Homo sapiens, UniProt P34972). Description: Binding affinity to CB2 receptor.

Consider `CCCCCCC(C)(C)c1cc(OC)c([C@H]2C=C(CO)[C@@H]3C[C@H]2C3(C)C)c(OC)c1`, for which the Ki (as a rule, a dissociation constant, usually derived from enzyme kinetics or from competition with a known ligand) was found to be 0.0227 µM.
